From US8881823B2, “Environmentally friendly low temperature breaker systems and related methods” (Halliburton Energy Services, Inc., priority 2011, dated 2014)

Assay: Calcite dissolving capacity of breaker systems
Assay type: physicochemical
Details: 2.5 g BARACARB 5 in 50 mL test fluid, one hour

- % Carbonate Complexed or Dissolved: 35.2%
- Final Weight of BARACARB 5, g: 1.62 g
SMILES: Cl.NC(N)=O [Synthetic acid (HCl salt of urea), HCl salt of urea]
